Yeast mating assay B: variants of the scFv Ab-14

Data: MIT Lincoln Laboratory AlphaSeq set, Li et al. 2023, doi:10.1038/s41467-023-39022-2, as distributed in FLAb.

The target is the same throughout: PDVDLGDISGINAS, from the HR2 region of SARS-CoV-2 spike.

Each scFv is VH, a (GGGGS)3 linker, VL, as in the parent Ab-14, and differs from it in the CDRs of the light chain only.
VH: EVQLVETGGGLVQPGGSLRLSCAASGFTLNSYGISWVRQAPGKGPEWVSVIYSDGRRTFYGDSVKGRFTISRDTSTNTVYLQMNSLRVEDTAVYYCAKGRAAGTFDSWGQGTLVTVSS
VL: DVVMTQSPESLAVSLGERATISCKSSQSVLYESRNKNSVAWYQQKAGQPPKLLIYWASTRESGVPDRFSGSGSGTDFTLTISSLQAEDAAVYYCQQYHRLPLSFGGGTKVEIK

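Phage display of a naive human antibody library on the peptide gave the parent. These sequences belong to a second round, designed from the earlier measurements on random variants of the parent. Their group label is 14L_GP_HC (GP: Gaussian process model; HC: hill climbing; a sequence that several methods proposed may carry one label only). The assay is AlphaSeq: two haploid yeast populations carry antibody and antigen on their surface. Pairs that bind mate more often; barcode pairs of the diploids are counted by sequencing. A regression on co-assayed BCL2-family reference pairs converts the normalised counts of each replicate to an apparent Kd. Each pool was mated in six replicate cultures.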

Changes read parent residue, position, new residue, counted from the first residue of the VL shown.
The read-out is the apparent dissociation constant on a log10 scale (nM): the lower, the stronger.
Replicates are averaged; those with no signal do not enter the mean.
"n.d." marks a missing value. The strain was present, yet no cells mated with the target were sequenced in that replicate, which points to weak or no binding.
Values of this round are not directly comparable with the first-round values of the same sequences.
The authors' rule: three or more of the six replicates give a measured affinity, fewer mean a poor binder.
Of ten entries with the parent sequence, four were seen in most replicates (averages 0.34 to 2.37), three in one and three in none, so single entries are noisy.
Nonspecific signal, from three strains lacking the peptide, appeared in 4% of pairings of all light chain designs, centred on 2.64 (5% of these signals below 1.59); values are not corrected for it. For each scFv, signals with the empty controls are counted beside the result, with their mean in brackets.

changes | replicates, log10 nM | mean log10 Kd (nM) | control signals
K24V/S25L/S26M/W56H/T59L/S62D | 1.31 1.39 n.d. 1.69 n.d. 1.29 | 1.42 | 0 of 18
S25G/V29W/W56G/S62N | -0.60 -0.65 -0.77 -0.87 -0.89 -0.46 | -0.71 | 1 of 18 (3.11)
S25Q/L30P/R34V/W56D | -0.03 0.02 -0.23 -0.01 -0.72 0.06 | -0.15 | 0 of 18
Q27F/V29E/Y31F/W56D | 0.16 0.37 0.30 0.03 0.02 0.31 | 0.20 | 0 of 18
V29F/W56G/E61D | 0.88 0.36 0.45 0.46 0.44 0.62 | 0.54 | 2 of 18 (3.78)
S25L/S26Y/V29T/K36P/W56N | -0.17 -0.18 -0.20 -0.30 -0.24 -0.11 | -0.20 | 4 of 18 (3.09)
K24H/Q27P/L30E/W56N/T59I | 1.26 1.01 0.43 0.37 1.00 0.73 | 0.80 | 0 of 18
Q27I/V29C/Y31E/W56E | 0.12 0.23 -0.23 -0.18 -0.24 0.04 | -0.04 | 0 of 18
S28D/V29Y/W56G | 0.01 -0.27 -0.26 -0.47 -0.06 -0.10 | -0.19 | 2 of 18 (2.04)
K24H/Q27P/K36G/W56N/S62A | 0.34 0.65 0.44 0.36 0.44 0.66 | 0.48 | 1 of 18 (1.66)
S25F/S26P/S28G/W56G/T59V | 2.04 1.75 1.88 n.d. 2.19 n.d. | 1.97 | 1 of 18 (1.43)
S25Q/V29W/W56G | -0.11 0.00 0.33 0.06 0.52 -0.20 | 0.10 | 1 of 18 (1.53)
S25L/S38A/W56D/Q96L/R99W | 1.25 1.19 1.84 2.84 3.00 1.87 | 2.00 | 0 of 18
S25V/S26L/S33G/W56H | 0.93 0.53 0.48 0.55 0.53 0.70 | 0.62 | 0 of 18
S25L/S26R/V29T/W56Q/E61L | 0.21 0.19 0.14 0.11 0.25 0.23 | 0.19 | 2 of 18 (2.44)
S25Y/S28G/W56G | 0.25 0.12 -0.03 -0.16 0.10 0.26 | 0.09 | 2 of 18 (3.41)
S25Q/V29F/N35W/W56G/T59Q | 0.60 0.60 0.54 0.40 0.36 0.78 | 0.54 | 0 of 18
S25L/S26V/Q27N/V29T/N35Q/W56G | 0.55 0.29 0.33 0.45 0.37 0.43 | 0.40 | 0 of 18
S25L/S26H/W56H/S62D | n.d. n.d. n.d. n.d. n.d. n.d. | n.d. | 0 of 18
S25L/S26P/V29T/N35Q | 0.25 0.03 -0.05 0.05 0.08 0.50 | 0.14 | 0 of 18
Q27G/V29F/W56G/P101T | 0.03 -0.08 0.14 0.37 -0.44 0.02 | 0.01 | 0 of 18
Q27L/V29Y/W56E/S103M | 0.41 0.31 0.09 0.24 0.15 0.27 | 0.24 | 4 of 18 (3.36)
K24H/S25L/Q27D/W56G/S103L | -0.38 -0.42 -0.29 -0.55 -0.44 -0.30 | -0.40 | 1 of 18 (1.59)
S26Y/N35D/W56H/E61C/S62D | 0.54 0.45 0.28 0.54 0.36 0.67 | 0.47 | 1 of 18 (3.72)
Q27I/V29Y/L30G/Y31E/W56E | -0.82 0.51 -1.42 -0.70 -1.16 -0.56 | -0.69 | 0 of 18
K24H/Q27P/W56E | -0.01 -0.38 -0.43 -0.57 -0.35 -0.18 | -0.32 | 0 of 18
S25V/Q27M/V29Y/Y31L/W56E | 0.31 0.32 0.18 -0.10 -0.03 0.15 | 0.14 | 0 of 18
S25L/S26D/W56G/S62D/Q95K | 1.48 1.04 1.12 1.31 1.44 1.35 | 1.29 | 2 of 18 (1.54)
L30A/Y31L/K36A/W56D | -0.06 -0.28 0.02 -0.26 -0.36 -0.12 | -0.18 | 1 of 18 (1.95)
Y31G/S33Q/W56D/P101C | 2.12 1.50 1.87 1.46 2.19 1.95 | 1.85 | 1 of 18 (3.21)
S25V/N35M/W56D/E61C | 0.50 0.77 0.48 0.37 0.39 0.81 | 0.55 | 1 of 18 (3.93)
S25F/Q27P/W56N | 0.66 2.56 0.37 1.80 1.03 0.72 | 1.19 | 0 of 18
S25L/S26Q/S38N/W56G/S62D | -0.53 -0.58 -0.71 -0.80 -0.71 -0.44 | -0.63 | 0 of 18